Vapor pressure values, as collected for the OPERA models

Values as listed in the OPERA 2.9 repository of K. Mansouri.

Vapor pressure is log10 of mmHg; the set covers 15 to 30 °C, mostly 20 to 25 °C.
"n/a" marks a cell with nothing listed here.
The databases behind each value are named after "via".

| structure (SMILES) | name | log vapor pressure (log10 mmHg) | via |
|---|---|---|---|
| Fc1ccc(C2=CCC(C3CCC4(CC3)OCCO4)CC2)cc1F (stereo not drawn) | n/a | -7.268 | eChemPortal |
| CC(C)(CO)COC(=O)C(C)(C)CO | n/a | -3.974 | eChemPortal |
| C[C@@H]1CNC[C@@H](C)O1 (relative stereo) | trans-2,6-Dimethylmorpholine | 0.464 | eChemPortal |
| CN(C)CCCCCCN(C)C | N,N,N',N'-Tetramethyl-1,6-hexanediamine | -0.91 | eChemPortal |
| O=C(O)c1cc(Br)nn1-c1ncccc1Cl | n/a | -6.516 | eChemPortal |
| CC(C)CCC(C)(O)C#CC(C)(O)CCC(C)C (stereo not drawn) | 2,5,8,11-Tetramethyldodec-6-yne-5,8-diol | -3.417 | eChemPortal |
| C=C(CC(=O)O)C(=O)O | Methylenebutanedioic acid | -7.064 | eChemPortal |
| CC(=O)c1ccc(Cl)cc1Cl | 1-(2,4-Dichlorophenyl)ethan-1-one | -1.84 | eChemPortal |
| CCC[C@H]1CC[C@H]([C@H]2CC[C@H](C(=O)O)CC2)CC1 | n/a | -7.227 | eChemPortal |
| N#Cc1ccc(Nc2nccc(=O)[nH]2)cc1 | 4-[(6-Oxo-1,6-dihydropyrimidin-2-yl)amino]benzonitrile | -9.907 | eChemPortal |
| CC(C)CCOC(=S)S | Carbonodithioic acid, O-(3-methylbutyl) ester | 1.466 | eChemPortal |
| COC(=O)CC(OC)c1ccc(OC)cc1 (stereo not drawn) | Methyl beta,4-dimethoxybenzenepropanoate | -3.949 | eChemPortal |
| CC(C)OCCOC(=O)c1ccccc1O | 2-(Propan-2-yloxy)ethyl 2-hydroxybenzoate | -2.652 | eChemPortal |
| Cc1ccc(S(=O)(=O)n2cc(Br)c3cc(F)cnc32)cc1 | n/a | -9.246 | eChemPortal |
| CCc1nccnc1C | 2-Ethyl-3-methylpyrazine | 0.185 | eChemPortal |
| O=C(O)CC[C@@H](C(=O)O)N1C(=O)c2ccccc2C1=O | L-2-Phthalimidoglutaric acid | -4.614 | eChemPortal |
| CCCC(C)C=O (stereo not drawn) | 2-Methylpentanal | 1.282 | eChemPortal |
| COC1CCCC1 | Cyclopentane, methoxy- | 1.506 | eChemPortal |
| CC(COC(=O)c1ccccc1)OC(=O)c1ccccc1 (stereo not drawn) | Propylene glycol dibenzoate | -3.347 | eChemPortal |
| O=c1c(-c2ccccc2)c1-c1ccccc1 | Diphenylcyclopropenone | -2.625 | OCHEM |
| O=c1[nH]c2ccccc2n1CCCCl | 1-(3-Chloropropyl)-1,3-dihydro-2H-benzimidazol-2-one | -3.989 | eChemPortal |
| O=C(O)COc1ccc2sc3ccccc3c(=O)c2c1 | ((9-Oxo-9H-thioxanthen-2-yl)oxy)acetic acid | -9.698 | eChemPortal |
| C=CN1CCCCCC1=O | N-Vinylcaprolactam | -1.62 | eChemPortal |
| CC1=NS(=O)(=O)c2ccccc21 | 1,2-Benzisothiazole, 3-methyl-, 1,1-dioxide | -5.888 | eChemPortal |
| CC1(C)CC(O)CC(C)(CN)C1 (stereo not drawn) | Cyclohexanol, 3-(aminomethyl)-3,5,5-trimethyl- | -1.176 | eChemPortal |
| C=Cn1ccnc1 | 1H-Imidazole, 1-ethenyl- | -0.426 | eChemPortal |
| CC1(C)[C@@H]2CC[C@@](C)(O)[C@H]1C2 | cis-2-Pinanol | -1.301 | OFMPub |
| CCCCCCC1CCCC1=O (stereo not drawn) | 2-Hexylcyclopentanone | -1.803 | eChemPortal |
| O=C(c1ccccc1Cl)C1CCCC1 | 2-Chlorophenyl cyclopentyl ketone | -2.844 | eChemPortal |
| CC(C)CCCCCCCCCCCCCCC(=O)OCC(O)COCC(O)CO (stereo not drawn) | n/a | -9.648 | eChemPortal |
| C[C@@H](Oc1ccc(O)cc1)C(=O)[O-].[HH].[K+] | potassium (R)-2-(4-hydroxy-phenoxy)-propionate | -8.046 | eChemPortal |
| CC1=CC=C(C(C)C)CC1 | alpha-Terpinene | -0.098 | OCHEM |
| O=C(Cl)c1cc(Cl)cc(Cl)c1 | 3,5-Dichlorobenzoyl chloride | -1.322 | eChemPortal |
| O=C1c2ccccc2C(=O)c2c(NCCCOCCOCCO)ccc(NCCCOCCOCCO)c21 | n/a | -7.459 | eChemPortal |
| O=S(=O)(F)C(F)(F)C(F)(F)OC(F)(Cl)C(F)(F)Cl (stereo not drawn) | 4,5-Dichloroperfluoro-3-oxapentanesulfonyl fluoride | 1.137 | eChemPortal |
| Cc1ccc(C(C)(C)C)cc1 | 4-tert-Butyltoluene | -0.155 | PubChem, eChemPortal |
| CCOC(OCC)[SiH2]CN1CCOCC1 | 4-{[(Diethoxymethyl)silyl]methyl}morpholine | -0.648 | eChemPortal |
| NCCOCCOCCN | 2,2'-[Ethane-1,2-diylbis(oxy)]diethanamine | -0.274 | eChemPortal |
| CCO[Si](CCCNC=O)(OCC)OCC | N-[3-(Triethoxysilyl)propyl]formamide | -4.238 | eChemPortal |
| CC(=O)OC[C@H]1O[C@@](COC(=O)C(C)C)(O[C@H]2O[C@H](COC(C)=O)[C@@H](OC(=O)C(C)C)[C@H](OC(=O)C(C)C)[C@H]2OC(=O)C(C)C)[C@@H](OC(=O)C(C)C)[C@@H]1OC(=O)C(C)C | Saccharose acetate isobutyrate | -7.71 | eChemPortal |
| CC(C)=CCl | 2,2-Dimethylvinyl chloride | 2.218 | PubChem |
| Cc1c(Cl)cccc1Cl | 2,6-Dichlorotoluene | -0.593 | PubChem |
| CCCCCCN(CCCCCC)CCCCCC | N,N-Dihexyl-1-hexanamine | -2.567 | eChemPortal |
| Clc1ccc(-c2c(Cl)c(Cl)c(Cl)c(Cl)c2Cl)cc1Cl | 2,3,3',4,4',5,6-Heptachlorobiphenyl | -5.836 | OCHEM |
| Cc1ccc(C=O)cc1C | 3,4-Dimethylbenzaldehyde | -0.534 | eChemPortal |

The last 3 entries again:

structure (SMILES)	name	log vapor pressure (log10 mmHg)	via
CCCCCCN(CCCCCC)CCCCCC	N,N-Dihexyl-1-hexanamine	-2.567	eChemPortal
Clc1ccc(-c2c(Cl)c(Cl)c(Cl)c(Cl)c2Cl)cc1Cl	2,3,3',4,4',5,6-Heptachlorobiphenyl	-5.836	OCHEM
Cc1ccc(C=O)cc1C	3,4-Dimethylbenzaldehyde	-0.534	eChemPortal

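OPERA's authors assembled the values from existing databases and did not measure them anew. One number stands for a compound and property, with no spread given. How each value was measured is not recorded, so precision varies. The measured form (salt, isomer or mixture) is not always the one drawn. Some upstream entries may be estimates or bounds without being marked so.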